These results are taken from ChEMBL document CHEMBL1135195, “2-(2-Hydroxy-3-alkoxyphenyl)-1H-benzimidazole-5-carboxamidine derivatives as potent and selective urokinase-type plasminogen activator inhibitors” (Bioorg Med Chem Lett, 2002).

The assay deals with Urokinase-type plasminogen activator (Homo sapiens, UniProt P00749).

As to `N=C(N)c1cc2[nH]c(-c3cccc(OC[C@H]4CCCN4)c3O)nc2cc1F`, the Ki is 700 nM. With `N=C(N)c1cc2[nH]c(-c3cccc(OC4CCNC4)c3O)nc2cc1F` (stereo not drawn), affinity was put at a Ki of 1200 nM. Turning to `CCOc1cccc(-c2cc3cc(C(=N)N)ccc3[nH]2)c1O`, the inhibition constant Ki turned out to be 450 nM.

By Ki is commonly meant the dissociation constant of the complex between target and ligand, obtained from inhibition or displacement. Low readings indicate higher affinity, high ones lower affinity.
